Source: article PMC3996367, “Profiling of drugs and environmental chemicals for functional impairment of neural crest migration in a novel stem cell-based test battery” (Archives of Toxicology, 2014)
Like-named read-outs stand apart in the source and are kept apart here.

Experiments:
[1] = design: method as in Yung et al. [1991]; conditions: ref Yung et al. [1991]; cited from earlier work
[2] = test system: pregnant cynomolgus monkeys; conditions: cited from earlier work; for Dose showing developmental toxicity: ref US FDA report
[3] = test system: migration of hESC-derived neural crest cells (NCC); assay: MINC assay (migration inhibition of neural crest cells, UKN2); conditions: 48 h

## interferon β [IFNβ]
[1]
  Higher concentrations reached upon i.v. bolus injections, relative to 1.9-3 pM: About 100 fold
[2]; GD90 to term, assuming 22.5 kDa
  Dose showing developmental toxicity: 33 pmol/kg/day
[2]; gestational day 90 to term (GD160)
  Dose showing developmental toxicity: 740 ng/kg/day
[2]; intramuscular, GD90 through term, ref US FDA (1999)
  Dose increasing spontaneous abortions and/or fetal loss: 0.033 nmol IFN-β/kg/day
[3]; in a non-cytotoxic concentration range
  Effect on NCC migration in concentration-response study: concentration-dependent effect
[3]; highest non-cytotoxic concentration, hit = ≥25 % reduction in NCC migration with ≤10 % cytotoxicity
  Hit classification in the MINC screen: hits
